Laboratory results: patent US12414968B2, “Compositions comprising bacterially derived minicells and methods of using the same” (EnGeneIC Molecular Delivery Pty Ltd, priority 2018, dated 2025)

System: Adreno-cortical cancer cell lines ACC01 and ACC07
Test: MTS cell proliferation assay, ACC01 and ACC07
Details: 72 hrs, lines derived from Stage IV patients

`O=C1[O][Pt]2([NH][C@@H]3CCCC[C@H]3[NH]2)[O]C1=O` [oxaliplatin] was tested, and the “cytotoxic effect / resistance of the cell lines” value was “highly resistant”.
